# Nrf2 ARE act – activators of Nrf2 (ARE) signaling. AREc32 ARE-luciferase reporter (MCF7-derived line), luminescence, 24 h. Potency, µM (highest dose often 46.1 µM), for inactives: at the highest dose activation, actives largely listed as activators. actives 0.31% (n = 410,000); also: potency is read from the fitted curve at half-maximal effect; % of control where 0% means no effect; nearly all actives have a fitted effect of over 65% in size
#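 Luciferase luminescence (Steady-Glo, 30 min at room temperature) served as the read-out of ARE activation in AREc32 cells treated with compounds for 24 hr at 37 deg C.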
# miR-21 FLuc – miR-21 reporter, rising signal | HeLa miR-21 FLuc reporter, luciferase, 48 h | Potency, µM (top dose mostly 38.3 µM), inactives show at the top dose reporter change, positive = more light | 340,000 tested, under 10 active | AID 2288; active = well fitted rising curve with a large enough effect; inconclusive = small, poorly fitted or top-dose-only effect; inactive = no such curve, though single readings can be large or run the other way;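 further: % of control where 0% means no effect; miR-21 action dims this reporter so a rising signal means less miR-21 action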
#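 Luminescence from a firefly luciferase reporter carrying a miR-21 binding site downstream, stably expressed under a CMV promoter in HeLa cells that make miR-21 endogenously, reports miRNA modulation after 48 h compound exposure up to approximately 40uM final.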
# Nrf2 block – Nrf2 pathway inhibition; Potency, µM (titrated, usually from 46 µM), for the others: top-dose activity change, negative = inhibition, most hits filed as inhibitors; AID 504444; A549 ARE-Fluc reporter, luciferase luminescence, 18-24 h; actives 2.1% (n = 360,000); also: potency is read from the fitted curve at half-maximal effect; % is scaled to controls: 0 for no effect and ±100 for the full control effect; nearly all actives have a fitted effect of over 60% in size
#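 Concentration-response testing used A549 ARE_Fluc cells at 5000 cells/well. Following an 18-24 h compound incubation, viability was read by fluorescence (Ex 405/Em 525) and luciferase output by luminescence.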
# A549 tox – counter-screen for Nrf2 inhibitors: cytotoxicity in A549 cells. actives 0.16% (n = 390,000). AID 504648. Potency, µM (highest dose often 46 µM), for inactives: at the highest dose activity change, negative = cytotoxicity, most hits filed as inhibitors. A549 ARE-Fluc cells, CellTiter-Fluor viability, 18-24 h; also: potency is read from the fitted curve at half-maximal effect; % is scaled to controls: 0 for no effect and ±100 for the full control effect
#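 Cytotoxicity counterscreen: CellTiter-Fluor fluorescence was measured in A549 ARE_Fluc cells after 18-24 h of compound exposure in a concentration series. The subsequent BugLite luminescent read reports ARE-luciferase activity.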
# ClpP mod – qHTS Assay for Activators of ClpP; ATP-dependent Clp protease proteolytic subunit (Bacillus subtilis (strain 168)), P80244; purified B. subtilis ClpP, FRET peptide cleavage, 20 min; Potency, µM (titrated, usually from 57.5 µM), for the others: top-dose activity change, negative = active; actives 1.9% (n = 340,000); AID 651965, 2013; active = well fitted falling curve with a large enough effect; inconclusive = small, poorly fitted or top-dose-only effect; inactive = no such curve, though single readings can be large or run the other way; also: potency is read from the fitted curve at half-maximal effect; the source files actives as falling curves though it sought activators and does not explain the sign; nearly all actives have a fitted effect of over 65% in size
#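 Purified B. subtilis ClpP, 10 microg/mL final in Tris/HCl pH8 with KCl, BSA, glycerol and Tween-20, cleaved an Abz/nitrotyrosine-quenched decapeptide. Fluorescence (ex 320, em 430) was read at 0 and 20 min at room temperature. Delta was normalized to 5.8 microM ADEP and DMSO/no-enzyme controls.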
# p53 reactivation – restores transcriptional activity of mutant p53 | actives 0.063% (n = 320,000) | H1299 p53-A138V BP100-luciferase reporter, luminescence, 24 h | Potency, µM (series often up to 92.2 µM), for inactives: top-dose activity change, positive = activation, most hits filed as activators; also: potency is read from the fitted curve at half-maximal effect; % of control where 0% means no effect; nearly all actives have a fitted effect of over 45% in size
#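 H1299 (p53-null), stable ts p53-A138V + BP100-Luc; 1000 cells/well, Opti-MEM/10% FBS; cpd 4 pt, 1:5; 24 h, 37 deg C, 5% CO2; detection reagent 10 min RT; luminescence.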
# An asterisk follows results filed as active; ? = inconclusive; . = no result; [ ] = another dose, or the depositor's remark. A selection: hits, their analogues and other compounds. The true share with any hit is near 3.7%. Unless noted, calls follow the shape of the dose curve; as a rule, active = well fitted curve in the direction sought with a large enough effect; inconclusive = small, poorly fitted or top-dose-only effect, or another doubt; inactive = no such curve, though single readings can be large; an effect the other way counts as inactive or inconclusive.
SMILES,Nrf2 ARE act,miR-21 FLuc,Nrf2 block,A549 tox,ClpP mod,p53 reactivation
COC(=O)C1=C(C)NC(=O)/C1=C\c1cc(C)n(-c2cc(C)cc(C)c2)c1C,2%,-1%,23µM*,?,-1%,1%
Cc1ccc(Cn2ncc3c(N4CCN(Cc5ccc(Cl)cc5)CC4)ncnc32)cc1,1%,7%,8.2µM*,-14%,-3%,-11%
Cc1ccccc1N1CCN(c2ncnc3c2cnn3Cc2ccc(Cl)cc2)CC1,8%,14%,18µM*,-6%,?,-1%
Cc1ccc(-n2nc(C(=O)NCc3ccc(F)cc3Cl)c3c4ccccc4n(C)c3c2=O)cc1,-1%,-5%,-17%,-4%,-15%,.
CCc1ccccc1Nc1nc2cc(Cl)c(Cl)cc2nc1-n1nc(C)cc1C,2%,-2%,9%,3%,0%,.
Nc1cc(C(=O)OCC(=O)NC(c2ccccc2)c2ccccc2)ccc1Cl,-1%,-1%,7%,-7%,25µM*,-1%
COc1ccc(OC)c(CNC(=O)c2ccc(NC(=O)c3nsc4ccccc34)cc2)c1,1%,-29%,.,?,-19%,.
CCCCOc1ccc(CNC(=O)c2cnc3sc(N4CCC(C)CC4)nn3c2=O)cc1,9%,-4%,?,11%,-5%,.
CSc1ccc(CNCCCSc2ncccn2)cc1,3%,-2%,17%,6%,8.9µM*,.
CCOc1ccc(S(=O)(=O)Nc2ccccc2C(=O)NCC2CCCO2)cc1 (stereo not given),0%,-7%,7%,3%,28µM*,-3%
Cc1ccc(S(=O)(=O)Nc2ccccc2C(=O)NCC2CCCO2)cc1 (stereo not given),0%,-6%,0%,1%,?,-10%
Cn1ncc2c(N3CCC(Cc4ccccc4)CC3)ncnc21,2%,14%,?,-11%,.,9%
NNC(=O)c1cc2c(N3CCC(Cc4ccccc4)CC3)ncnc2s1,0%,12%,26µM*,-12%,.,-1%
O=C(Cc1ccc(F)cc1)NO,.,.,.,.,-2%,.
CNc1nc(N2CCCN(C)CC2)nc2cc(OC)c(OC)cc12,.,.,.,.,4%,.
COc1ccc(-c2nc3ccc(C)cn3c2NCc2ccc3c(c2)OCO3)cc1,12%,-49%,?,-3%,?,0%
Clc1ccc(-c2nc3cnccn3c2Nc2ccc3c(c2)OCO3)cc1,-1%,9%,23µM*,?,-5%,6%
Cc1ccn2c(Nc3ccc4c(c3)OCO4)c(-c3ccccn3)nc2c1,-1%,-51%,?,-18%,-1%,20µM*
c1csc(-c2nc3ccccn3c2Nc2ccc3c(c2)OCCO3)c1,0%,-24%,23µM*,-22%,4%,.
Cc1ccn2c(Nc3ccc4c(c3)OCCO4)c(-c3cccs3)nc2c1,12%,-41%,6%,-8%,4%,.
Cc1ccc(-c2nc3ccccn3c2NCc2ccc3c(c2)OCO3)cc1,2%,-29%,14%,-6%,32µM*,10%
Cc1c([N+](=O)[O-])cnc2ccccc12,.,.,.,.,-15%,.
CC(=O)NCCNc1nc2cc(-c3ccccc3)sc2c(=O)n1C,1%,.,.,.,5%,.
COc1ncccc1-c1cc2nc(NCCNC(C)=O)n(C)c(=O)c2s1,3.5µM*,.,.,.,4%,.
Fc1cc(Br)ccc1NC(=S)Nc1ccccc1,3%,-46%,8%,6%,28µM*,?
Fc1ccccc1NC(=S)Nc1ccc(Br)cc1,0%,9%,23µM*,?,0%,?
CCC(=O)Nc1ccc2c(c1)C(=O)N(C1CCCCC1)C2=O,-1%,-8%,-1%,-1%[1.84 µM],22µM*,7%
COc1ccccc1N1CCN(S(=O)(=O)c2cc(C(=O)Nc3ccc(Oc4ccccc4)cc3)ccc2F)CC1,0%,27%,.,-2%,-5%,.
CC(O)Cn1ccccc1=N (stereo not given),-1%,-1%,9%,3%,16µM*,-1%

# Shown with values under each structure: part of the list above.
# Every second line gives: Nrf2 ARE act | miR-21 FLuc | Nrf2 block | A549 tox | ClpP mod | p53 reactivation
COc1ncccc1-c1cc2nc(NCCNC(C)=O)n(C)c(=O)c2s1
  3.5µM* | . | . | . | 4% | .
Fc1cc(Br)ccc1NC(=S)Nc1ccccc1
  3% | -46% | 8% | 6% | 28µM* | ?
Fc1ccccc1NC(=S)Nc1ccc(Br)cc1
  0% | 9% | 23µM* | ? | 0% | ?
CCC(=O)Nc1ccc2c(c1)C(=O)N(C1CCCCC1)C2=O
  -1% | -8% | -1% | -1%[1.84 µM] | 22µM* | 7%
